Source: publication PMC11927755

Tested on: P10636
Experiment: SDS-PAGE and Western blot of heat-, SDS- and reducing condition-stable multimers; 2 μM tau in aggregation buffer (10 mM sodium Hepes, 0.1 mM EDTA, 200 mM NaCl, 5 mM DTT, pH 7.6) with 75 μM arachidonic acid (aggregated) or ethanol vehicle (unaggregated), 6 h at RT; boiled in Laemmli buffer …
Details: other: SDS-PAGE and Western blot of heat-

| Substance | fold increase of stable multimers on aggregation against the unaggregated sample |
| --- | --- |
| O-GlcNAc modified hT40 (Glc hT40, 2N4R tau) | 3.8-fold increase, t = 6.530, p < 0.05 for Glc hT40 |
| unmodified hT40 (full-length tau, 2N4R isoform, 441 amino acids) | 3-fold increase, t = 6.431, p < 0.05 for unmodified hT40 |
